{"source": "ChEMBL document CHEMBL4831477", "about": "“Structure-Enabled Discovery of Novel Macrocyclic Inhibitors Targeting Glutaminase 1 Allosteric Binding Site” (J Med Chem, 2021)", "key": {"[1]": {"target": "T1, Glutaminase kidney isoform, mitochondrial (Homo sapiens) (UniProt O94925)", "T1 sequence (whole entry)": "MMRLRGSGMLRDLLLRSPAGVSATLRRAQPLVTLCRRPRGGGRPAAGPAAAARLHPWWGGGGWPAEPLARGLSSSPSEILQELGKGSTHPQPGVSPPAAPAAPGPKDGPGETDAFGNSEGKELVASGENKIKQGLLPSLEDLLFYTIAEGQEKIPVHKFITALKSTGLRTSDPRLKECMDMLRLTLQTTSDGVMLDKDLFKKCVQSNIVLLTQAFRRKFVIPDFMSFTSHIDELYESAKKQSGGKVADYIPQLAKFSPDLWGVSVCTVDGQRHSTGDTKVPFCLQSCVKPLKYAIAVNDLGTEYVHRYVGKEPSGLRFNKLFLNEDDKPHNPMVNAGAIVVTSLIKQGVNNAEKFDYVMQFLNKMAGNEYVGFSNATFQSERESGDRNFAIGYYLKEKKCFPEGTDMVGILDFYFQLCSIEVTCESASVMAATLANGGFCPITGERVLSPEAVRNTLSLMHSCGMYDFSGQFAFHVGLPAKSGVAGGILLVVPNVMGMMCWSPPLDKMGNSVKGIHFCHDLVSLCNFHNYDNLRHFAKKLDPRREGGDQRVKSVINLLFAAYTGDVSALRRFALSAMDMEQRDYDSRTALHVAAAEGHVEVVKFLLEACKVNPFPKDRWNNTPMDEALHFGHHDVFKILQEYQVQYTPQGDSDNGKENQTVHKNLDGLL", "conditions": "HCT-116, dose 50-200 nM, time 12.0 hrs"}, "[2]": {"target": "T1, Glutaminase kidney isoform, mitochondrial (Homo sapiens)"}, "[3]": {"target": "T1, Glutaminase kidney isoform, mitochondrial (Homo sapiens)", "conditions": "HCT-116, dose 50-200 nM, time 12.0 hrs", "remark": "listed apart in the source"}, "[4]": {"target": "T1, Glutaminase kidney isoform, mitochondrial (Homo sapiens)", "conditions": "HCT-116, dose 50-200 nM"}, "[5]": {"target": "T1, Glutaminase kidney isoform, mitochondrial (Homo sapiens)", "conditions": "dose 300.0 µM"}, "[6]": {"target": "T1, Glutaminase kidney isoform, mitochondrial (Homo sapiens)", "remark": "listed apart in the source"}, "[7]": {"target": "T2, Glutaminase kidney isoform, mitochondrial (Homo sapiens, UniProt O94925)", "T2 sequence (O94925 whole entry)": "T1 sequence (whole entry)", "experiment": "Binding affinity to human GLS1 expressed in Escherichia coli strain BL21 (DE3) assessed as dissociation rate constant by surface plasmon resonance analysis"}, "[8]": {"target": "T1, Glutaminase kidney isoform, mitochondrial (Homo sapiens)", "conditions": "HCT-116, dose 50-200 nM, time 12.0 hrs", "remark": "listed apart in the source"}, "[9]": {"experiment": "Ratio of fCmax in BALB/c nude mouse plasma xenografted with human HCT-116 cells at 200 mg/kg, po administered twice daily for 28 days to IC50 for human HCT-116 cells", "assay_type": "ADME, organism-based", "conditions": "in vivo, 672 h, time 28 day"}, "[10]": {"target": "T1, Glutaminase kidney isoform, mitochondrial (Homo sapiens)", "remark": "listed apart in the source"}, "[11]": {"target": "T1, Glutaminase kidney isoform, mitochondrial (Homo sapiens)", "conditions": "HCT-116, dose 50-200 nM, time 12.0 hrs", "remark": "listed apart in the source"}, "[12]": {"target": "T2, Glutaminase kidney isoform, mitochondrial", "experiment": "Inhibition of recombinant human GLS1 expressed in Escherichia coli strain BL21 (DE3) preincubated for 10 mins before glutamine addition and measured after 60 mins by bovine liver glutamate dehydrogenase based coupled enzyme assay"}, "[13]": {"target": "T2, Glutaminase kidney isoform, mitochondrial", "experiment": "Binding affinity to human GLS1 expressed in Escherichia coli strain BL21 (DE3) assessed as dissociation constant by surface plasmon resonance analysis"}, "[14]": {"target": "T1, Glutaminase kidney isoform, mitochondrial (Homo sapiens)", "conditions": "HCT-116, dose 50-200 nM, time 12.0 hrs", "remark": "listed apart in the source"}, "[15]": {"target": "T2, Glutaminase kidney isoform, mitochondrial", "experiment": "Binding affinity to human GLS1 expressed in Escherichia coli strain BL21 (DE3) assessed as association rate constant by surface plasmon resonance analysis"}, "[16]": {"target": "T2, Glutaminase kidney isoform, mitochondrial", "experiment": "Binding affinity to human GLS1 expressed in Escherichia coli strain BL21 (DE3) by ITC analysis"}, "[17]": {"target": "T1, Glutaminase kidney isoform, mitochondrial (Homo sapiens)", "conditions": "HCT-116, dose 50-200 nM", "remark": "listed apart in the source"}}, "note": "Calls of active or inactive are those of the source. The rule behind the calls is not given here."}
{"molecule": "O=C1Cc2cccc(c2)OCC/C=C/CCOc2cccc(c2)CC(=O)Nc2nnc(s2)CCCCc2ccc(nn2)N1", "values": [{"measurement": "inhibition", "setting": "[1]", "result": "Active"}, {"measurement": "ΔTm", "setting": "[2]", "result": 16.2, "unit": "°C"}, {"measurement": "inhibition", "setting": "[3]", "result": "Active"}, {"measurement": "inhibition", "setting": "[4]", "result": "Active"}, {"measurement": "deltaH", "setting": "[5]", "result": -15.1, "unit": "kcal/mol"}, {"measurement": "ΔTm", "setting": "[6]", "result": 18.4, "unit": "°C"}, {"measurement": "koff", "setting": "[7]", "result": 0.003, "unit": "s⁻¹"}, {"measurement": "inhibition", "setting": "[8]", "result": "Active"}, {"measurement": "Ratio", "setting": "[9]", "result": 2.62}, {"measurement": "ΔTm", "setting": "[10]", "result": 17.4, "unit": "°C"}, {"measurement": "inhibition", "setting": "[11]", "result": "Active"}, {"measurement": "IC50", "setting": "[12]", "result": 6, "unit": "nM"}, {"measurement": "Kd", "setting": "[13]", "result": 24.2, "unit": "nM"}, {"measurement": "inhibition", "setting": "[14]", "result": "Active"}, {"measurement": "kon", "setting": "[15]", "result": 20900, "unit": "M⁻¹ s⁻¹"}, {"measurement": "Kd", "setting": "[16]", "result": 37, "unit": "nM"}, {"measurement": "inhibition", "setting": "[17]", "result": "Active"}]}
